Assay results taken from US9950048B2, “Immunogenic epitopes for immunotherapy” (immatics biotechnologies GmbH, priority 2007, dated 2018).
“And” between values parts separate entries of the source, which are not always exact repeats. Identical values can stand only once.

What was measured:
[1] = system: CD8+ T cells of healthy HLA-A*02+ donors; experiment: In vitro priming of CD8+ T cells with pMHC/anti-CD28 coated beads (high density), tetramer analysis; assay type: cell-based, human
Text: To perform in vitro stimulations by artificial antigen presenting cells (aAPC) loaded with peptide-MHC complex (pMHC) and anti-CD28 antibody, first PBMCs (peripheral blood mononuclear cells) were isolated from fresh HLA-A*02+ buffy coats by using standard density gradient separation medium (PAA, Cölbe, Germany). Buffy coats were either obtained from the Blood Bank Tübingen or from the Katharinenhospital Stuttgart. […] Generation of pMHC/anti-CD28 coated beads, T-cell stimulations and readout was performed as described before (Walter, S, et al., 2003, J. Immunol., 171, 4974-4978) with minor modifications. […]
800,000 beads/200 μl were coated in 96-well plates in the presence of 600 ng biotin anti-CD28 plus 200 ng relevant biotin-pMHC (high density beads) or 2 ng relevant plus 200 ng irrelevant (pMHC library) MHC (low density beads). […] Peptide specific cells were calculated as percentage of total CD8+ T cells. […] In vitro priming of specific tetramer+CD8+ lymphocytes was detected by appropriate gating and by comparison to negative control stimulations. […]
Results of in vitro immunogenicity experiments conducted by immatics are summarised here. […] As different human serum lots may highly affect the immunogenicity results, only assays in which one and the same serum lot was used, were evaluated together.

[2] = Particle size/shape measurement and analytical HPLC of reconstituted IMA910 suspension; assay type: physicochemical; conditions: analytical HPLC of suspension
Protocol: Particle size distribution and particle shape measurement of the particles obtained after reconstitution have been performed by capturing direct images of each individual particle in the range of 0.25 to 100 μm followed by image analysis.
Furthermore, analytical HPLC was performed for a closer characterization of the obtained suspension.
IMA910 is dissolved in 700 μL sodium hydrogen carbonate (4.2%).

With “FLPSDFFPSV [IMA-HBV-001, reference compound]” the Positive donors/donors tested [1] was 2/5 and 7/16, the Positive wells/wells tested [1] was 10/54 and 10/107 and the “amount of peptide found in the particles” value [2] was “low amounts”.
